Source: patent US10286079B2, “Modified cytotoxins and their therapeutic use” (The Regents of the University of California, priority 2015, dated 2019)

Assay: Particle size by dynamic light scattering
Assay type: physicochemical
Description: Multiple formulations of PTX-FA and HSA were prepared according to the method of Example 14, and varying the molar ratio of PTX-FA to HSA. For each formulation, a particle size analysis was carried out using dynamic light scattering.

Question: Which results are given for Human serum albumin [Free HSA]?
Answer: Particle Radius (average radius): 3.5 nm; Percentage of Particles (particles having the respective radius): 99.8 mass %
